Assay results: US7928060B2, “Amylin family polypeptide-6 (AFP-6) analogs and methods of making and using them” (Amylin Pharmaceuticals, Inc., priority 2004, dated 2011)

System: NIH/Swiss mice
Assay: acute food intake assay in overnight-fasted mice, IP injection
Type: in vivo, mouse
Method: The effect of AFP-6 on food intake was investigated using an acute food intake assay. This assay measured food consumption in lean, group-housed, overnight-fasted NIH/Swiss mice. 12 mice were housed 3 to a cage. The sample compound, in this case AFP-6, was injected IP in mice and food intake was measured during the next 2-hours. Decreased, as well as increased, food intake can be measured. Testing various doses of the compound generated ED50's. The assay was performed as follows: 1. Remove food (water ad libitum) at 5:00 pm the evening before the study. 2. Weigh food pellets (3 pellets/cage). 3. Inject animals intraperitoneally with 200 ul of appropriate solution, t=0. 4. Immediately add pre-weighed food to each cage (away from water bottle spout) and allow animals to feed undisturbed. 5. At 30, 60, and 120 minutes, collect and weigh food. 6. Analyze data. Data points represent mean ±sd of n=12.
Twelve mice were injected IP at t=0 for each dose, 0.3, 1, 3, 10, 30, 100, or 300 nmol/kg of AFP-6 (Amylin Pharmaceuticals, Inc.) (n=12/group). Food was introduced immediately after injection and amount consumed measured at t=30, 60, and 120 min.

In the case of “r/h CGRP: Amylin Family polypeptide of Table 3; r/h not resolved per value”, the “FI 30 min ED50” value (30 min) is reported as 0.9 nmol/kg and the “FI 60 min ED50” value (60 min) is reported as 4.2 nmol/kg.
